Reference: patent US20250230125A1 (The Board of Regents of The University of Texas System, priority 2022, published 2025)

Chains of the proteins cited; added tags and fusions are not shown. Residues count along the entry.
UniProt P28335, 33-458: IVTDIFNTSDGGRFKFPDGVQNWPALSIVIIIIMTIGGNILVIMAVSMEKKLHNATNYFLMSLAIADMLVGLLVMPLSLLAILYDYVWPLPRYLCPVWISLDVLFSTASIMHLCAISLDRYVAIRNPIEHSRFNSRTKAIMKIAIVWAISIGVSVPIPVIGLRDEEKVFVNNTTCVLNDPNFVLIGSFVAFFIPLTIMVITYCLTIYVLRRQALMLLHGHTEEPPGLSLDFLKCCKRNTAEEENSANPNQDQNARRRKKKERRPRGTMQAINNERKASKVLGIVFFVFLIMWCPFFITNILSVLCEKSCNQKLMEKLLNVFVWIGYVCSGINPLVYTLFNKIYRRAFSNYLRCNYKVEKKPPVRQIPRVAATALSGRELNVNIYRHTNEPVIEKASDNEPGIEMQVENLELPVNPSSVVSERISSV

Key:
[1] = molecular target: h5-HT2CR (Homo sapiens, UniProt P28335); assay: 5-HT-evoked Cai2+ release in h5-HT2CR-CHO cells; conditions: compound 1 nM, added 15 min prior to 5-HT (10^−11 to 10^−6 M), 5-HT alone = 100%
[2] = tested on: hMDRI-MDCKII cells; assay: MDCK-MDR1 membrane permeability and efflux; type: in vitro ADME

SMILES	Emax RFU (% 5-HT) [1] [% 5-HT]	membrane permeability (in words) [2]
CCCCCCCC/C=C\CCCCCCCC(=O)N[C@@H](Cc1c[nH]c2ccccc12)C(=O)OC [Compound 19, Methyl oleoyl-L-tryptophanate]	125.4	
CCCCCCCC/C=C\CCCCCCCC(=O)NC(CO)(CO)CO [Compound 13, N-(1,3-dihydroxy-2-(hydroxymethyl)propan-2-yl)]		moderate permeability
